Experimental data taken from patent publication US10988792B2, “Methods for antimicrobial resistance determination” (bioMerieux, Inc., priority 2009, dated 2021).

Columns and labels:
Assay in all cases: Co-culture with vancomycin and Sytox Green, intrinsic fluorescence and membrane integrity of pellet
Type in all cases: cell-based
E. faecium 13185 (VRE) = conditions: Vanc. 12.5 μg/mL, 1 hour
Method: (§1) For each test strain, a 1 μL loopful of colonies from a 24-48 hour plate was suspended in 10-12 mL of BacT/ALERT SA media and cultured for 4-9 hours at 37° C. Samples of each log phase culture were then incubated with 0, 0.25, 2.5 and 12.5 μg/mL of vancomycin-HCl in combination with 1:5000 dilution of stock Sytox Green, a viable cell impermeant DNA stain (Molecular Probes, cat #S7020), for a period of 4 hours at 37° C. Aliquots of the cultures were removed for analysis immediately (T0) and after 1, 2.5 and 4 hours.
(§2) At the appropriate time-point, 0.5 mL aliquots of the cultures (0.5 mL) were overlaid on a density cushion composed of 24% w/v CsCl in 10 mM Hepes, pH 7.4 and 0.005% Pluronic F-108 contained in custom-made optical centrifugation tubes as disclosed in related U.S. patent application, Ser. No. 12/589,969, entitled “Separation Device for Use in the Separation, Characterization and/or Identification of Microorganisms”, filed Oct. 30, 2009. The tubes were sealed and centrifuged at 10,000 rpm for 2 minutes to separate intact microorganisms from the culture medium and unbound chemicals. The tubes were then placed into a custom-built tube holder directly onto a fiber optic probe built into the base. The probe was attached to a FluoroLog 3 spectrofluorimeter. The tube was interrogated through its UV-transparent base, and fluorescence and diffuse reflectance readings collected.

E. faecium 14054 (VSE) = system: E. faecium 14054 (VSE)
Method: as §1, §2

E. faecium 12406 (VRE) = conditions: Vanc. 2.5 μg/mL, 1 hour
Method: as §1, §2

SMILES: CN[C@H](CC(C)C)C(=O)N[C@H]1C(=O)N[C@@H](CC(N)=O)C(=O)N[C@H]2C(=O)N[C@H]3C(=O)N[C@H](C(=O)N[C@H](C(=O)O)c4cc(O)cc(O)c4-c4cc3ccc4O)[C@H](O)c3ccc(c(Cl)c3)Oc3cc2cc(c3O[C@@H]2O[C@H](CO)[C@@H](O)[C@H](O)[C@H]2O[C@H]2C[C@](C)(N)[C@H](O)[C@H](C)O2)Oc2ccc(cc2Cl)[C@H]1O [vancomycin]
- Microbial NADH fluorescence (Ex340 nm/Em440 nm) (E. faecium 13185 (VRE)): 226,769
- Microbial NADH fluorescence (Ex340 nm/Em440 nm) (E. faecium 14054 (VSE); Vanc. 2.5 μg/mL, 2.5 hour): 349,287
- Microbial NADH fluorescence (Ex340 nm/Em440 nm) (E. faecium 14054 (VSE); Vanc. 12.5 μg/mL, Zero time): 248,332
- Microbial NADH fluorescence (Ex340 nm/Em440 nm) (E. faecium 12406 (VRE)): 253,323
